Source: patent US4774230A, “Glucuronic acid derivatives of opioid antagonists” (Ivax Laboratories, Inc., priority 1988, dated 1988)

How the values were obtained:
[1] = system: opioid-dependant animals (central nervous system); assay: Rapid Quantitative In Vivo Assay for Narcotic Antagonist (skin tail temperature rise, CNS withdrawal sign); settings: FIG. 1; doses as low as 10 μg/kg
Excerpt: The Rapid Quantitative In Vivo Assay for Narcotic Antagonist of Katovich et al. (Substance and Alcohol Actions/Misuse, vol 5: 87095, 1984) was used. This assay is based on the extreme sensitivity of opioid-dependant animals to narcotic antagonists. Injection of these animals with a narcotic antagonist produces severe central nervous system withdrawal signs. One of these signs is an abrupt rise in the skin temperature of the tail.

[2] = analysis of blood, urine and feces after oral nalmefene (free nalmefene versus nalmefene glucuronide); type: in vivo, rats
Excerpt: Such a high degree of biotransformation is common for this type of drug. However it was discovered that the relative concentrations of free nalmefene and nalmefene glucuronide in the feces of these animals were in marked contrast to the blood and urine. Whereas the ratio of nalmefene to nalmefene glucuronide in the blood and urine was about 1:100, in the feces the ratio was about 3:1.

## C=C1CC[C@@]2(O)[C@H]3Cc4ccc(O)c5c4[C@@]2(CCN3CC2CC2)[C@H]1O5 [nalmefene, 6-methylene-6-desoxy-N-cyclopropylmethyl-14-hydroxydihydronormorphine]
[1]
  rise in skin tail temperature: marked rise in skin tail temperature
[2]
  concentration of nalmefene glucuronide relative to free nalmefene: about 100 fold
